Laboratory results taken from PubChem BioAssay AID1846 (The Scripps Research Institute Molecular Screening Center, 2009).
The list shows a part of the results, in another mix than the full data. Activity calls are given as the source filed them. No stated cut-off is given here; in the data, active means inhibition above about 18%; inactive means the rest.

The molecules below were run against Heat shock protein HSP 90-alpha (Homo sapiens) (UniProt P07900) (assay: inhibitors of HSP90 chaperone activity – cell lysate, luminescence, confirmation (AID 1846;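 further: 0% = vehicle wells and 100% = reference inhibitor wells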)). Conditions: rabbit reticulocyte lysate, luciferase refolding luminescence, 3 h; at 5.9 µM; stronger effect = higher value.

Row | SMILES | inhibition
1 | O=P(Nc1nccs1)(c1ccccc1)c1nc2ccccc2s1 (configuration not stated) | active: 70.1%
2 | O=C(O)c1ccccc1[As](=O)(O)O | active: 74.7%
